This is an account of results in BindingDB's records for doi:10.1016/0024-3205(83)90740-3 (University of Toronto, 1983).

Amino acid sequences for entries named in this document (tags omitted).
UniProt P14842, whole entry: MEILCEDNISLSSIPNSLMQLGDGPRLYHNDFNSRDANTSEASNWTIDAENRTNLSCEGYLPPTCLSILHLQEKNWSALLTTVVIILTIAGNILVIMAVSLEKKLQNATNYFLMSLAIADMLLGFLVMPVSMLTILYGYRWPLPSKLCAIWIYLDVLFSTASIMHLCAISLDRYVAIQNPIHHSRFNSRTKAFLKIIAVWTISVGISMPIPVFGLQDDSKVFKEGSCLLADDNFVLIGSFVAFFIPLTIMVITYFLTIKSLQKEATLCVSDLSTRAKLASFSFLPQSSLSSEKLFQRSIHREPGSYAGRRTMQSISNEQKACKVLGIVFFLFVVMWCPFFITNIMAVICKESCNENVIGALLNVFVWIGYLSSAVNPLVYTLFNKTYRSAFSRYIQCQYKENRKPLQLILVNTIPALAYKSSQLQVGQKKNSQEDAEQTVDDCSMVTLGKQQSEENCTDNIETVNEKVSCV

Usually Ki stands for the equilibrium dissociation constant of an inhibitor or competing ligand from its target. Low readings indicate tighter binding, high ones weaker binding.

For the assay, the target named is 5-hydroxytryptamine receptor 2A (Rattus norvegicus, UniProt P14842).

`O=C(CCCN1CCC2(CC1)C(=O)NCN2c1ccccc1)c1ccc(F)cc1` [8-[4-(4-fluorophenyl)-4-oxidanylidene-butyl]-1-phenyl-1,3,8-triazaspiro[4.5]decan-4-one]: the affinity, expressed as Ki, was 500 pM.
